ChEMBL document CHEMBL4330143, “Maximizing ER-α Degradation Maximizes Activity in a Tamoxifen-Resistant Breast Cancer Model: Identification of GDC-0927” (ACS Med Chem Lett, 2019)

Test system: MCF7
Assay: Antiproliferative activity against human MCF7 cells after 5 days by CellTiter-Glo assay
Details: MCF7, 120 h

CC1=C(c2cccc(O)c2)C(c2ccc(OC[C@H](C)N3CC[C@@H](CF)C3)cc2)Oc2ccc(O)cc21 (some centres not stated)
IC50: 0.2 nM

CC1=C(c2cccc(O)c2)C(c2ccc(OCCN3CCC(CF)CC3)cc2)Oc2ccc(O)cc21 (configuration not stated)
IC50: 0.1 nM
